# Values of other authors as cited in patent US20190374647A1 (published 2019).
# Settings: cited from earlier work
compound,measurement,setting,value
O=S(=O)(O)c1ccc(O)cc1,LogP (acid),,−1.624
same,LogD (acid)- at pH = 5.5,pH 5.5,−5.12
